The values below are quoted from earlier work in patent publication US20260144817A1, “IN[…] THERAPY IN BCG-EXPOSED PATIENTS” (priority 2022, published 2026).

The conditions of the data set: patients; printed 'as high as'.

As for “High dose IL-2: high dose interleukin-2 infused after TIL”, the toxicity is 70-90%.
